Earlier results on one compound are cited in patent publication US8741882B2, “Anti-diabetic compounds” (Sen Capital, LLC., priority 2012, dated 2014).

For this data set the following is noted: in vivo; cited from earlier work.

For `CN(C)C(=N)N=C(N)N` [Metformin, N,N-dimethylimidodicarbonimidic diamide], the metabolism and excretion entry is “excreted unchanged in the urine and does not undergo hepatic metabolism nor billary excretion”.
